# Assay results as given in PubChem BioAssay.
# By UniProt entry, the sequences of proteins in these tests, tags left out. Where a name states a change or a piece, a line headed by the entry shows the natural chain unless it says otherwise.
# UniProt P22629, whole entry, looked up: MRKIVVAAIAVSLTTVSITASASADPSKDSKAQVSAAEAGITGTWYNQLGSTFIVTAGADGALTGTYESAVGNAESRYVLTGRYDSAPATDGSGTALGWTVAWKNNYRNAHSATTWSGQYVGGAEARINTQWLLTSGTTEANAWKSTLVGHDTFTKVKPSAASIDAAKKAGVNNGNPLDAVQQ
# UniProt O14656: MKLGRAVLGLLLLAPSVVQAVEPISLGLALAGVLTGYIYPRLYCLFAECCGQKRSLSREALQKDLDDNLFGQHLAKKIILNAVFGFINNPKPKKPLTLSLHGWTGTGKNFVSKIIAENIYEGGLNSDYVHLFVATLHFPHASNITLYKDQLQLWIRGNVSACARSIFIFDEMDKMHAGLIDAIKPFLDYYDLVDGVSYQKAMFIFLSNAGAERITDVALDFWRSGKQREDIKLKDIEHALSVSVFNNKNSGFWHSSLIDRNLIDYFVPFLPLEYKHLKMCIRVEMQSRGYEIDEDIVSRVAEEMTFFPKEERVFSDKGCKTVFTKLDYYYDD
# UniProt P04839: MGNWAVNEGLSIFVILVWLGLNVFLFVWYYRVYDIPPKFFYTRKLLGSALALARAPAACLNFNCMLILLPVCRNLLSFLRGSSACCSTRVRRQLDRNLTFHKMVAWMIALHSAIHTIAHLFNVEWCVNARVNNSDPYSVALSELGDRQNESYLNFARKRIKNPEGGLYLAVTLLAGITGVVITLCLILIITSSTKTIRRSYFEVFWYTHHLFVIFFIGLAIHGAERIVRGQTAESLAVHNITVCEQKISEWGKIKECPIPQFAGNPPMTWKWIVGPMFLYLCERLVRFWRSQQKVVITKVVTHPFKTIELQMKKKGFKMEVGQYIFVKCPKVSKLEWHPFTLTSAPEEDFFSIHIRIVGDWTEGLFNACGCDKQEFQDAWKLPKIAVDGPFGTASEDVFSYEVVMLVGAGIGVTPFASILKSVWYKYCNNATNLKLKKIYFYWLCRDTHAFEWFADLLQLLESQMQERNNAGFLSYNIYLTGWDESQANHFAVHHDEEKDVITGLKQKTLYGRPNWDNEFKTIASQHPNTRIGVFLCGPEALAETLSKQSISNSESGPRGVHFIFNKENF
# UniProt Q9NPH5: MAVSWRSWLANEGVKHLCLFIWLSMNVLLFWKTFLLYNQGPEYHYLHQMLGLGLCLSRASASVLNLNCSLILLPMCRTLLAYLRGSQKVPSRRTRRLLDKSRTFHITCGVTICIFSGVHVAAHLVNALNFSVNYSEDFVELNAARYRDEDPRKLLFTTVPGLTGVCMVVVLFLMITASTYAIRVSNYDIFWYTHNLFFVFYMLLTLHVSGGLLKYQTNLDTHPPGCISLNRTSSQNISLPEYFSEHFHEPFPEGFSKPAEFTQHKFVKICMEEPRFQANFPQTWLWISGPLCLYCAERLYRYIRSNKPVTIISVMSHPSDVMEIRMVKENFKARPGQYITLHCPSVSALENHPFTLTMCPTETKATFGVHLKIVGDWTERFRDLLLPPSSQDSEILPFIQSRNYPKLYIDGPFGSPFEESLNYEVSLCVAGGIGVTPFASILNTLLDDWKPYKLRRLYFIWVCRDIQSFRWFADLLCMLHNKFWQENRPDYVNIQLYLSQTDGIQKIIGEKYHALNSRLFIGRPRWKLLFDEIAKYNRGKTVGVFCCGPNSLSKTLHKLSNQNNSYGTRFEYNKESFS
# UniProt Q96PH1: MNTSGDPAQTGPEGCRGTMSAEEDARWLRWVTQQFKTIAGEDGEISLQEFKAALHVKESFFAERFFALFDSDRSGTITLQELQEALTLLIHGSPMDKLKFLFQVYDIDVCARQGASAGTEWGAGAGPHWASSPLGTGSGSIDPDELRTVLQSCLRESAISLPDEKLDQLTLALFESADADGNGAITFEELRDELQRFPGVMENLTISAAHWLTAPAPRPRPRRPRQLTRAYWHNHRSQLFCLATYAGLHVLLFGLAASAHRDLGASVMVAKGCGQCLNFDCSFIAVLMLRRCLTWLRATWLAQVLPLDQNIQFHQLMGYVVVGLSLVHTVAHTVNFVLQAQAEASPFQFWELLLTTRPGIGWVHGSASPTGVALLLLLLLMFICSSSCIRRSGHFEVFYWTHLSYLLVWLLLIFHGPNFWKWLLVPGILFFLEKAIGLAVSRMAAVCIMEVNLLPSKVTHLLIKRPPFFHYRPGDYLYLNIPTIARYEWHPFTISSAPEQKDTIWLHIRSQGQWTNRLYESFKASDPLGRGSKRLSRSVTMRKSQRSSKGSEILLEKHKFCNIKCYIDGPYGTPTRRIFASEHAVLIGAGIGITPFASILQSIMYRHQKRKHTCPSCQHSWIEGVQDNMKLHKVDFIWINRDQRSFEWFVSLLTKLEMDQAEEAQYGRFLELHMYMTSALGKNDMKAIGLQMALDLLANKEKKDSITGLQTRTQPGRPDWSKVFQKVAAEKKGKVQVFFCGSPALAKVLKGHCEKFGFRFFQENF
# This is a selection; strong and weak results do not stand in their true shares. The list shows a part of the results. Calls of active or inactive are those of the source.
# Assays:
# [1] = test system: Lefty1; experiment: Lefty1 protein binding to printed compounds – biochemical, small-molecule microarray, 635/667 nm fluorescence, primary screen (AID 1139); settings: fluorescence 635/667, higher = more signal
# [2] = test system: wheat germ agglutinin (Triticum aestivum), Alexa647-labelled; experiment: Alexa647-WGA lectin binding to printed small molecules – biochemical, small-molecule microarray, 635/667 nm fluorescence, artefact control for SMM control-protein annotation, profiling panel (AID 1140); settings: WGA-A647 binding, 635 nm fluorescence, higher = more signal;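 note: score merges 667 nm feature emission with signal to noise over triplicate slides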
# [3] = test system: Wnt5a (protein binding on small-molecule microarray); experiment: small molecules binding Wnt5a protein – biophysical, small-molecule microarray, 635/667 nm fluorescence, primary screen (AID 1142); settings: 635 nm fluorescence, higher = more signal;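 note: fluorescence read at 667 nm with signal to noise per printed feature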
# [4] = ATP-based viability of Huh7 replicon cells – cell-based, CellTiter-Glo luminescence, basal, 48 h, cytotoxicity control for HCV replication inhibitor project, primary screen (AID 1143); settings: higher = more signal, called active from +8 up or from −8 down;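 note: Huh7 hepatoma cells carrying a hepatitis C replication reporter with no stimulus; test concentration not given here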
# [5] = forskolin-driven CRE-LacZ activity in PC12 – cell-based, CRE-LacZ reporter, forskolin-stimulated, primary screen (AID 1146); settings: luminescence, 4.5 h, higher = more signal, called active from +8 up or from −8 down;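 note: PC12 cells with 6xCRE LacZ reporter stimulated by forskolin 10 µM; beta-galactosidase reporter signal reflecting CREB driven transcription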
# [6] = molecular target: Streptavidin (Streptomyces avidinii) (UniProt P22629); experiment: compounds binding control protein streptavidin – biophysical, small-molecule microarray, 635/667 nm fluorescence, artefact control for SMM compound annotation, primary screen (AID 1147); settings: higher = more signal;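 note: signal reflects streptavidin binding to arrayed compounds as a control protein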
# [7] = probe aInhba binding on compound microarray – biochemical, small-molecule microarray, 635/667 nm fluorescence, primary screen (AID 1148); settings: higher = more signal;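 note: score merges 667nm spot fluorescence with signal-to-noise for antibody binding to printed compounds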
# [8] = molecular target: Torsin-1A (Homo sapiens) (UniProt O14656); experiment: TOR1A wild-type binding on microarray – cell lysate, small-molecule microarray, lysate, 635/667 nm, primary screen (AID 1149); settings: COS7 hTOR1A-WT lysate, 635 nm fluorescence, higher = more signal
# [9] = molecular target: Torsin-1A (Homo sapiens) (UniProt O14656); experiment: torsin A mutant lysate binding on microarrays – cell lysate, small-molecule microarray, COS7 lysate, 635/667 nm fluorescence, primary screen (AID 1150); settings: COS7 hTOR1A mutant lysate, 635 nm fluorescence, higher = more signal;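 note: score pools 667 nm emission and signal to noise measuring lysate protein binding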
# [10] = test system: Sonic hedgehog protein (Shh); experiment: Sonic hedgehog microarray binding compounds – biochemical, small-molecule microarray, 635/667 nm fluorescence, primary screen (AID 1151); settings: 635 nm fluorescence, higher = more signal;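 note: Shh protein binding to compounds spotted on small-molecule microarray slides; score combines spot fluorescence intensity with signal-to-noise across triplicate slides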
# [11] = probe aLefty1 binding on compound microarray – biochemical, small-molecule microarray, 635/667 nm fluorescence, primary screen (AID 1153); settings: higher = more signal;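 note: score merges spot fluorescence with signal-to-noise ratio from the scanned slide images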
# [12] = changes in parasitized red cell lysis, either direction – P. falciparum Indochina, OD700, 3 h, PSAC antagonist project, primary screen (AID 1156); settings: P. falciparum-infected erythrocytes, osmotic lysis, higher = more signal, called active from +8 up or from −8 down
# [13] = plasmodial surface anion channel blockers, osmotic lysis – cell-based, P. falciparum Indochina, OD700, 18 h, primary screen (AID 1157); settings: P. falciparum Indochina infected erythrocytes, osmotic lysis OD700, 18 h; higher = more signal, called active from +8 up or from −8 down
# [14] = S6 kinase pathway phospho-S6 level changes – cell-based, A549, cytoblot, luminescence, serum-stimulated, primary screen (AID 1158); settings: 5 h, higher = more signal;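 note: serum-stimulated A549 lung adenocarcinoma cells; signal is phosphorylated S6 detected by cytoblot immunostaining with HRP secondary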
# [15] = molecular target: NADPH oxidase 2 (Homo sapiens) (UniProt P04839); experiment: compounds shifting NOX2 Amplex Red fluorescence – cell-based, HEK293-NOX2, PMA-stimulated, NOX inhibitor project, primary screen (AID 1159); settings: 45 min, higher = more signal, called active from +8 up or from −8 down; note: test concentration not given here
# [16] = molecular target: NADPH oxidase 4 (Homo sapiens) (UniProt Q9NPH5); experiment: compounds shifting NOX4 Amplex Red fluorescence – cell-based, HEK293-NOX4, tetracycline-induced, NOX inhibitor project, primary screen (AID 1160); settings: HEK293-NOX4, Amplex Red H2O2 fluorescence, 45 min; higher = more signal, called active from +8 up or from −8 down
# [17] = molecular target: NADPH oxidase 5 (Homo sapiens) (UniProt Q96PH1); experiment: compounds shifting NOX5 Amplex Red fluorescence – cell-based, HEK293-NOX5, NOX inhibitor project, primary screen (AID 1161); settings: HEK293-NOX5, ionomycin, 45 min, higher = more signal
# [18] = compound effects on lung adenocarcinoma cell viability – A549, calcein-AM fluorescence, 48 h, basal, profiling panel (AID 1162); settings: higher = more signal; note: test concentration not given here
# [19] = compound effects on differentiated 3T3-L1 adipocyte viability – cell-based, 3T3-L1 adipocytes, calcein-AM fluorescence, 48 h, basal, profiling panel (AID 1163); settings: 3T3-L1 adipocytes viability, higher = more signal; note: test concentration not given here
# [20] = compound effects on hepatocellular carcinoma cell viability – HepG2, calcein-AM fluorescence, 48 h, basal, profiling panel (AID 1164); settings: higher = more signal; note: test concentration not given here
Compound,composite z-score [1],composite z-score [2],composite z-score [3],z-score [4],z-score [5],composite z-score [6],composite z-score [7],composite z-score [8],composite z-score [9],composite z-score [10],composite z-score [11],z-score [12],z-score [13],z-score [14],z-score [15],z-score [16],z-score [17],z-score [18],z-score [19],z-score [20]
O=P(/N=C1/CC(c2ccc(CO)cc2)=CC(c2cccs2)N1Cc1cccc(OC(F)(F)F)c1)(Oc1ccccc1)Oc1ccccc1 (stereo not given),-0.364,1.11,-0.0586,inactive: -4.88,inactive: -0.359,1.98,-0.0774,1.85,1.41,0.0334,0.167,inactive: 0.328,inactive: 0.917,0.423,inactive: -0.692,inactive: 0.215,0.63,-0.766,1.52,-1.85
COP(=O)(/N=C1/CC(CCCO)=CC(C)N1Cc1cccc(OC(F)(F)F)c1)OC (stereo not given),0.0739,0.648,0.0808,inactive: -1.33,inactive: -0.645,0.854,0.397,0.674,1.2,0.418,0.546,inactive: -0.301,inactive: -1.54,0.692,inactive: 1.71,inactive: 1.57,1.39,1.34,0.305,1.1
COP(=O)(/N=C1/CC(CCCO)=CC(c2ccc(CN3CCCC3)cc2)N1Cc1cccc(OC(F)(F)F)c1)OC (stereo not given),1.11,0.95,0.272,inactive: -2.34,inactive: 0.391,0.866,0.424,1.7,0.418,1.28,0.547,inactive: 1.43,inactive: -0.799,2.13,inactive: -3.08,inactive: -0.684,-0.507,1.47,0.613,1.35
COP(=O)(/N=C1/CC(c2ccc(CO)cc2)=CC(C2CC2)N1C)OC (stereo not given),0.275,0.878,0.125,inactive: -1.85,inactive: -0.955,1.19,0.0219,-0.0993,0.174,0.378,0.0678,inactive: 0.328,inactive: -1.9,1.87,inactive: -2.93,inactive: -0.608,0.0683,2.99,1.48,1.65
CN1/C(=N\P(=O)(Oc2ccccc2)Oc2ccccc2)CC(c2ccc(CO)cc2)=CC1C1CC1 (stereo not given),0.104,1.25,0.182,inactive: -3.05,inactive: -1.12,0.684,0.0566,0.0112,0.957,0.958,-0.137,inactive: -0.798,inactive: -1.66,1.28,inactive: -1.65,inactive: -0.564,-1.19,1.6,0.104,0.417
COP(=O)(/N=C1/CC(CCCO)=CC(c2ccc(CN3CCCC3)cc2)N1C)OC (stereo not given),-0.269,0.28,0.264,inactive: -0.691,inactive: -0.107,0.597,0.388,0.182,0.152,-0.0571,0.318,inactive: 0.369,inactive: -1.69,1.19,inactive: 0.0697,inactive: 0.354,0.502,0.217,0.62,0.85
O=P(/N=C1/CC(CCCO)=CC(c2ccc(CN3CCCC3)cc2)N1Cc1sc2ccccc2c1Cl)(Oc1ccccc1)Oc1ccccc1 (stereo not given),0.058,0.931,0.0248,inactive: -5.93,inactive: 0.366,1.1,0.0497,0.348,0.36,0.674,0.0794,inactive: -0.136,inactive: 0.503,0.374,inactive: -3.61,inactive: -0.644,-0.756,-1.07,0.0291,-1.01
CN1/C(=N\P(=O)(Oc2ccccc2)Oc2ccccc2)CC(c2ccc(CO)cc2)=CC1c1cccs1 (stereo not given),-0.442,0.554,0.0271,inactive: -3.21,inactive: -0.93,0.476,0.0342,0.31,1.1,0.22,0.271,inactive: -0.348,inactive: -1.83,1.24,inactive: 0.175,inactive: -1.02,1.23,0.343,0.399,-0.394
O=P(/N=C1/CC(c2ccc(CO)cc2)=CC(C2CC2)N1Cc1sc2ccccc2c1Cl)(Oc1ccccc1)Oc1ccccc1 (stereo not given),1.22,1.13,0.508,inactive: -3.81,inactive: -1.65,1.51,0.177,-0.253,0.772,1.45,0.302,inactive: 1.39,inactive: 1.02,0.181,inactive: -1.32,inactive: -0.578,-0.241,-1.54,1.37,-0.263
O=P(/N=C1/CC(CCCO)=CC(c2cccs2)N1Cc1cccc(OC(F)(F)F)c1)(Oc1ccccc1)Oc1ccccc1 (stereo not given),-0.335,0.492,0.13,inactive: -1.65,inactive: -0.174,0.99,0.144,-0.122,0.734,0.0178,0.388,inactive: 0.751,inactive: 1.19,-0.12,inactive: -0.325,inactive: -0.455,0.711,0.61,0.366,0.544
O=P(/N=C1/CC(CCCO)=CC(C2CC2)N1Cc1cccc(OC(F)(F)F)c1)(Oc1ccccc1)Oc1ccccc1 (stereo not given),0.0693,0.896,-0.281,inactive: -1.55,inactive: 1.02,0.109,-0.0963,0.523,0.806,0.203,-0.0464,inactive: 1.21,inactive: 0.675,0.216,inactive: -1.12,inactive: -0.938,-1.13,0.14,0.701,-0.336
CC1C=C(CCCO)C/C(=N/P(=O)(Oc2ccccc2)Oc2ccccc2)N1Cc1cccc(OC(F)(F)F)c1 (stereo not given),0.415,1.17,-0.186,inactive: -1.18,inactive: 0.0059,0.393,-0.0645,1.22,1.22,0.153,0.0451,inactive: 0.941,inactive: 0.454,1.11,inactive: 0.141,inactive: -0.0903,0.093,-0.758,0.541,-0.77
COP(=O)(/N=C1/CC(c2ccc(CO)cc2)=CC(C2CC2)N1Cc1sc2ccccc2c1Cl)OC (stereo not given),1.41,1.22,1.28,inactive: -5.52,inactive: -3.16,1.86,1.1,0.914,1.25,1.22,0.607,inactive: 0.469,inactive: -0.551,3.31,inactive: 0.289,inactive: 0.782,0.537,1.4,2.12,0.369
O=P(/N=C1/CC(CCCO)=CC(c2ccc(CN3CCCC3)cc2)N1Cc1cc2c(cc1Br)OCO2)(Oc1ccccc1)Oc1ccccc1 (stereo not given),-0.517,0.108,-0.293,inactive: -0.49,inactive: 0.832,0.535,0.0713,-0.0828,0.421,-0.625,0.0627,inactive: 0.889,inactive: 0.302,0.291,inactive: 0.123,inactive: 0.606,0.495,-0.721,0.378,-0.978
COP(=O)(/N=C1/CC(CCCO)=CC(C2CC2)N1Cc1cccc(OC(F)(F)F)c1)OC (stereo not given),0.0602,-0.0548,-0.0514,inactive: -1.6,inactive: -0.0557,0.453,0.117,1.02,0.547,0.752,0.167,inactive: -0.38,inactive: -1.12,3.92,inactive: -1.15,inactive: -0.552,-0.148,1.67,1.02,1.56
